Reference: patent publication US7220720B2, “Melanin-concentrating hormone analogs” (Merk & Co., Inc., priority 2000, dated 2007)

Chains of the proteins cited; added tags and fusions are not shown. Lines headed by an entry give the natural chain unless they say otherwise; changes in a name come on top.
UniProt Q99705: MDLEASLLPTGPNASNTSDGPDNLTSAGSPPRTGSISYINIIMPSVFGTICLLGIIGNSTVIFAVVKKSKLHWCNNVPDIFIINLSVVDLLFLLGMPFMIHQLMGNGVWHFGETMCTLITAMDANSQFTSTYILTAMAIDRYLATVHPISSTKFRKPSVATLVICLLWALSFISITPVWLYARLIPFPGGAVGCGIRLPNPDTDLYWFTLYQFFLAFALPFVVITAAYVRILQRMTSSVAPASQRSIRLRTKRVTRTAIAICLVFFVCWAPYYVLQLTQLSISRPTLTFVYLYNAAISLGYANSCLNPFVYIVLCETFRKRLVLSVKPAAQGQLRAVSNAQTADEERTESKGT

How the values were obtained:
[1] = target: T1, human MCH receptor (Homo sapiens, UniProt Q99705); experiment: Radiolabeled MCH-R binding assay: inhibition of [125I]-human MCH (Phe13, Tyr19 substituted) binding to cell membranes (filter or SPA format); design: expressed in transfected cells
[2] = target: T1, human MCH receptor; experiment: Aequorin bioluminescence functional assay in 293-AEQ17 cells transfected with human MCH receptor; type: cell-based; design: expressed in transfected cells; host or cells: 293-AEQ17 (aequorin-expressing HEK-293 reporter line), transient lipofectamine transfection, pcDNA-3 vector; Activity Activation %: concentration or dose not given beside the values
[3] = Table 3, N-methyl-amino acid analogs
[4] = Table 4, position 6 modification

## CCCC[C@H]1C(=O)N[C@@H](CC(C)C)C(=O)NCC(=O)N[C@@H](CCCNC(=N)N)C(=O)N[C@@H](C(C)C)C(=O)N[C@@H](Cc2ccc(O)cc2)C(=O)N[C@@H](CCCNC(=N)N)C(=O)N2CCC[C@H]2C(=O)N[C@H](C(N)=O)CSSC[C@H](NC(=O)[C@H](CCCNC(=N)N)NC(C)=O)C(=O)N1C [compound 25]
[1]; [3]
  IC50: 0.16 nM
[2]; [3]
  Activity Activation %: 110%
  EC50: 20 nM

## CCCC[C@H](NC(C)=O)C(=O)N[C@H]1CSSC[C@@H](C(N)=O)NC(=O)[C@@H]2CCCN2C(=O)[C@H](CCCNC(=N)N)NC(=O)[C@H](Cc2ccc(O)cc2)NC(=O)[C@H](C(C)C)NC(=O)[C@H](CCCNC(=N)N)NC(=O)CNC(=O)[C@H](CC(C)C)NC(=O)[C@H](CCSC)NC1=O [compound 32]
[2]; [4]
  Activity Activation %: 107%

## CCCC[C@@H](NC(C)=O)C(=O)N[C@H]1CSSC[C@@H](C(N)=O)NC(=O)[C@@H]2CCCN2C(=O)[C@H](CCCNC(=N)N)NC(=O)[C@H](Cc2ccc(O)cc2)NC(=O)[C@H](C(C)C)NC(=O)[C@H](CCCNC(=N)N)NC(=O)CNC(=O)[C@H](CC(C)C)NC(=O)[C@H](CCSC)NC1=O [compound 42]
[1]; [4]
  IC50: 1.2 nM
[2]; [4]
  Activity Activation %: 97%
  EC50: 110 nM

## CSCC[C@@H]1NC(=O)[C@@H](NC(=O)[C@H]2CCCN2C(C)=O)CSSC[C@@H](C(N)=O)NC(=O)[C@@H]2CCCN2C(=O)[C@H](CCCNC(=N)N)NC(=O)[C@H](Cc2ccc(O)cc2)NC(=O)[C@H](C(C)C)NC(=O)[C@H](CCCNC(=N)N)NC(=O)CNC(=O)[C@H](CC(C)C)NC1=O [compound 43]
[2]; [4]
  Activity Activation %: 96%

## CSCC[C@@H]1NC(=O)[C@@H](NC(=O)[C@@H](CC(N)=O)NC(C)=O)CSSC[C@@H](C(N)=O)NC(=O)[C@@H]2CCCN2C(=O)[C@H](CCCNC(=N)N)NC(=O)[C@H](Cc2ccc(O)cc2)NC(=O)[C@H](C(C)C)NC(=O)[C@H](CCCNC(=N)N)NC(=O)CNC(=O)[C@H](CC(C)C)NC1=O [compound 44]
[2]; [4]
  Activity Activation %: 94%

## CSCC[C@@H]1NC(=O)[C@@H](NC(=O)[C@@H](CO)NC(C)=O)CSSC[C@@H](C(N)=O)NC(=O)[C@@H]2CCCN2C(=O)[C@H](CCCNC(=N)N)NC(=O)[C@H](Cc2ccc(O)cc2)NC(=O)[C@H](C(C)C)NC(=O)[C@H](CCCNC(=N)N)NC(=O)CNC(=O)[C@H](CC(C)C)NC1=O [compound 45]
[1]; [4]
  IC50: 2.3 nM
[2]; [4]
  Activity Activation %: 93%

## CSCC[C@@H]1NC(=O)[C@@H](NC(=O)[C@@H](CCC(=O)O)NC(C)=O)CSSC[C@@H](C(N)=O)NC(=O)[C@@H]2CCCN2C(=O)[C@H](CCCNC(=N)N)NC(=O)[C@H](Cc2ccc(O)cc2)NC(=O)[C@H](C(C)C)NC(=O)[C@H](CCCNC(=N)N)NC(=O)CNC(=O)[C@H](CC(C)C)NC1=O [compound 46]
[2]; [4]
  Activity Activation %: 85%

## CCCC[C@@H]1NC(=O)[C@@H](NC(=O)[C@H](CCCNC(=N)N)NC(C)=O)CSSC[C@@H](C(N)=O)NC(=O)[C@@H]2CCCN2C(=O)[C@H](CCCNC(=N)N)NC(=O)[C@H](Cc2ccc(O)cc2)NC(=O)[C@H](C(C)C)NC(=O)[C@H](CCCNC(=N)N)NC(=O)CNC(=O)[C@H](CC(C)C)NC1=O [compound 77]
[2]; Table 7, combinations and position 8
  Activity Activation %: 105%
